This passage reports IC50 results from US9505780B2, “Thienopyranones as kinase and epigenetic inhibitors” (SignalRx Pharmaceuticals, Inc., priority 2014, dated 2016).

Assay [1] deals with BRD4-1 (Homo sapiens (Human), UniProt O60885). In words: BRD4 region 1 (BRD4-1) inhibition. The conditions noted are these: read-out: BRD4-1 IC50. The format is biochemical.
Assay [2] deals with BRD4-2 (Homo sapiens (Human), UniProt O60885). The experiment in a line: BRD4 region 2 (BRD4-2) inhibition. The format is biochemical. The conditions noted are these: read-out: BRD4-2 IC50.

What is called IC50 is the concentration that gives 50% inhibition. Turning to `Cc1nnc(-c2ccc(-c3csc4c(=O)cc(N5CCOCC5)oc34)cc2)o1`, the values for the half-maximal inhibitory concentration (IC50) in assay [1] and in assay [2] were 5.48 µM and 11.6 µM, respectively.
